Measurements from US20120045528A1, “USE OF N20 GAS FOR TREATING CHRONIC PAIN” (priority 2009, published 2012).
Entries after “also recorded” stand apart in the source; their conditions may differ.

Test system: neuropathic rat (sciatic nerve constriction, CCI)
Test: Nociceptive threshold by vocalization test to a mechanical stimulus (Randall-Selitto) in rats with mononeuropathy from sciatic nerve constriction (CCI)
Assay type: in vivo, male Sprague-Dawley rats
Conditions: nitrous oxide at 50%
Experimental: A mononeuropathy is induced in male Sprague-Dawley rats (8 per group) by sciatic nerve constriction. More specifically, on D0, the rats are anesthetized with halothane and the sciatic nerve (injured hind paw side) is prepared using chromic catgut, 4 filament. Neuropathic pain lasting more than 40 days is thus induced.
On D7, the rats are placed in a hermetic chamber where they will inhale, for 75 minutes, the test gas mixture or medical air in the control rats (Sham). Repeated exposures to the mixtures take place on D7, D8, and D9.
Other rats are subjected to comparative treatments with conventional painkilling products, namely ketamine (3×10 mg/kg, sc) and morphine (1 mg/kg, sc).
The nociceptive threshold is then measured via a vocalization test in response to a mechanical stimulus (Randall-Selitto).
The data obtained per measurement are expressed as mean (±standard deviation). The level of significance is set starting from P<0.05.

## [N-]=[N+]=O [nitrous oxide]
  pain hypersensitivity in the non-injured (contralateral) hind paw: abolishing of pain hypersensitivity; also recorded: abolishes the hypersensitivity
